Tested on: VEGF in HEK293 cells
Experiment: VEGF ELISA assay
Assay type: cell-based
Conditions: Homo sapiens, HEK293, read-out: VEGF EC50
Description: HEK293 cells are seeded in 96-well poly-lysine coated plates at 20,000 cells per well in DMEM (10% FBS, 1% NEAA, 0.1% glutamine). Following overnight incubation, the cells are washed with 100 uL of Opti-MEM (Gibco, Carlsbad, Calif.) to remove serum. Compound in DMSO is serially diluted (beginning with 100 μM) in Opti-MEM and added to the cells. The conditioned media is analyzed for VEGF with a Quantikine human VEGF immunoassay kit (R&D Systems, Minneapolis, Minn.). Optical density measurements at 450 nm are recorded using the Spectra Max 250 (Molecular Devices, Sunnyvale, Calif.). Data defined as % of DFO stimulation is used to calculate EC50 values with GraphPad Prism 4 software (San Diego, Calif.).

`COC(=O)CNC(=O)c1ncc(-c2cccc(-c3nn[nH]n3)c2)cc1O` [({3-Hydroxy-5-[3-(2H-tetrazol-5-yl)-phenyl]-pyridine-2-carbonyl}-amino)-acetic acid methyl ester] was tested. Which EC50 did it give?
Its EC50 is over 100 µM.

Which EC50 does the source give for `COC(=O)CNC(=O)c1ncc(-c2cccc(C#N)c2)cc1O` [{[5-(3-Cyano-phenyl)-3-hydroxy-pyridine-2-carbonyl]-amino}-acetic acid methyl ester] here?
Its EC50 is over 100 µM.

For `COC(=O)CNC(=O)c1ncc(-c2ccc(C#N)cc2)cc1O` [{[5-(4-Cyano-phenyl)-3-hydroxy-pyridine-2-carbonyl]-amino}-acetic acid methyl ester], which EC50 is on record?
Its EC50 is over 100 µM.

— patent US9598370B2, “Prolyl hydroxylase inhibitors and methods of use” (Akebia Therapeutics, Inc., priority 2006, dated 2017)
